Assay [1] addresses T1, CLK3 (R134-T484) (Homo sapiens, UniProt P49761, A319V). Description: Omnia kinase assay. The assay is classed as biochemical.
Assay [2] deals with T2, CLK3 (R134-T484) (Homo sapiens, UniProt P49761). The assay can be described thus: ITC. The assay is classed as binding.
Assay [3] addresses T2, CLK3 (R134-T484). The assay can be described thus: Omnia kinase assay. Format: biochemical.
The next assay concerns the target CLK4 (Homo sapiens, UniProt Q9HAZ1). As to conditions: binder.
A further assay concerns the target CSNK1E (Homo sapiens, UniProt P49674). As to conditions: binder.
A further assay concerns the target DYRK1A (Homo sapiens, UniProt Q13627). Particulars: binder.
A further assay deals with PIM1 (Homo sapiens, UniProt P11309). As to conditions: binder.
Assay [4] addresses T2, CLK3 (R134-T484). As to conditions: binder.
Assay [5] concerns the target T1, CLK3 (R134-T484). Particulars: binder.
In another assay the target is CLK3 (Homo sapiens, UniProt P49761). As to conditions: binder.

By UniProt entry, the sequences of proteins in these tests, tags left out. Where a name states a change or a piece, a line headed by the entry shows the natural chain unless it says otherwise. Residues count along the entry.
UniProt P49761, 134-484 A319V: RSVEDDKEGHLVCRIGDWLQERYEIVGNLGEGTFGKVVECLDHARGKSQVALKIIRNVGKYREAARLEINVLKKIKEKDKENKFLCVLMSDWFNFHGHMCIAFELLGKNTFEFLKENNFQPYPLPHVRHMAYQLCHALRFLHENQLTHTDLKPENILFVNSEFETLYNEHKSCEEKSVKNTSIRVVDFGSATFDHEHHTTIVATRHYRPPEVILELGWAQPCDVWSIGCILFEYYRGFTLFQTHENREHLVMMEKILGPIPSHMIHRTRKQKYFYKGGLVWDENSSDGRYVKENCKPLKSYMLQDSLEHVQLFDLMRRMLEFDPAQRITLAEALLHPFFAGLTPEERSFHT
UniProt P49761, 134-484: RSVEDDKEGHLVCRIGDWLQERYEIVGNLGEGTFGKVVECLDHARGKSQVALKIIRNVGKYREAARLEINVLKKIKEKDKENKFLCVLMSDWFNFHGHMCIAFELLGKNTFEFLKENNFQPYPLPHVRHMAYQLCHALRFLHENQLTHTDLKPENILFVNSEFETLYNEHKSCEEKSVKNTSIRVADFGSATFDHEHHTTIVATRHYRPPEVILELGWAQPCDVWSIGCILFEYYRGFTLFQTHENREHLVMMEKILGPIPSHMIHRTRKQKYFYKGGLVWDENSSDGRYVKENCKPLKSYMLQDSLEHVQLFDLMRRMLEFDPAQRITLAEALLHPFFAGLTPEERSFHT
UniProt Q9HAZ1: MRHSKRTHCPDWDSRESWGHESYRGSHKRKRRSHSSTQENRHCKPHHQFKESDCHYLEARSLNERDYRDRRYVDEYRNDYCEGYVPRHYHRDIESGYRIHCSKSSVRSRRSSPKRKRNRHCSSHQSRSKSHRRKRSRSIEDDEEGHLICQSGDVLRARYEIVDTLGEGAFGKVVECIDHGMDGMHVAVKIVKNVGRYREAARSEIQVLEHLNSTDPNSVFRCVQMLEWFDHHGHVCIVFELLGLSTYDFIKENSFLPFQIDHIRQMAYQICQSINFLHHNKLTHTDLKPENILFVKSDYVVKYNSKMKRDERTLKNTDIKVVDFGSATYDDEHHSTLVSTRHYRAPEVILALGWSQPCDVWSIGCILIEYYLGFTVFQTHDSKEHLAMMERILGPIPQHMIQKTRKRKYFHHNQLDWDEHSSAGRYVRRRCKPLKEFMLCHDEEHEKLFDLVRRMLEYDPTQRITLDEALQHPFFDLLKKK
UniProt P49674: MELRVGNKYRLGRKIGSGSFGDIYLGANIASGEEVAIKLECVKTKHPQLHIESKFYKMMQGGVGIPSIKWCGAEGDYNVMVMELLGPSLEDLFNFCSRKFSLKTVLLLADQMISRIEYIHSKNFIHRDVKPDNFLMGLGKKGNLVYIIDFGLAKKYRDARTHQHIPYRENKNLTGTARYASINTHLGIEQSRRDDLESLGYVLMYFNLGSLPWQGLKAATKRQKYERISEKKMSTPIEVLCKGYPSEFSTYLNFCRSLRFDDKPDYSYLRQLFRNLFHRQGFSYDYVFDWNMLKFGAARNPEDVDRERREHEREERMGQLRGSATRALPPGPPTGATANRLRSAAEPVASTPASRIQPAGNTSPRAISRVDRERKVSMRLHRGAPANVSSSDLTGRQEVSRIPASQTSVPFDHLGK
UniProt P11309, whole entry: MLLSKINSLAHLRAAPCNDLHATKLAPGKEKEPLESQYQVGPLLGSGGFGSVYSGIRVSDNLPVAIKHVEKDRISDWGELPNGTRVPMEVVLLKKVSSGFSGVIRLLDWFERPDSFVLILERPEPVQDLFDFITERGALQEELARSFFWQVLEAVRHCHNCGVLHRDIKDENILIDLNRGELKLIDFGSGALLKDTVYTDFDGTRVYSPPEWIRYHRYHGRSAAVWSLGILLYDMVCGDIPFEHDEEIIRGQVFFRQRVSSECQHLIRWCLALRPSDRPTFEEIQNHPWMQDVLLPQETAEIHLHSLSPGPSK

By Ki is commonly meant a dissociation constant, usually derived from enzyme kinetics or from competition with a known ligand. Low readings indicate a stronger hold on the target, high ones a looser hold on the target. Usually Kd stands for the constant that tells how readily two partners part at equilibrium.

Take `CCN1/C(=C/C(C)=O)Sc2ccc(OC)cc21` [compound 2, TG003]: the Ki at CLK3 (R134-T484) [1] came out at 320 ± 50 nM; on CLK3 (R134-T484) [3] it was 5.2 ± 2 µM. The compound also registered a Kd on CLK3 (R134-T484) [2] of 7.78 ± 0.9 µM. The “ΔTm inhibitor 2” value at CLK4 is 9.8 °C; at CSNK1E, 5.1 °C; at DYRK1A, 6.1 °C; at PIM1, 5.9 °C. At CLK3 (R134-T484) [4], the “ΔTm wild type CLK3” value came out at 1.1 °C. Besides, the “ΔTm A319V CLK3” value at CLK3 (R134-T484) [5] worked out at 5.8 °C. Further, at CLK3, the “ΔTm (°C) 2” value is listed as 2.2 degC.
